From patent US20190153419

What was measured:
PAR-1 = PAR-1 (UniProt P25116)
fibrinogen = fibrinogen (UniProt P02671)
protein C = protein C (UniProt P04070)

Question: Which PAR-1 (kcat/Km) (PAR-1) does the source give for Thrombin here?
Answer: 3e+07 M⁻¹ s⁻¹

Question: What about the Fibrinogen (FpA) (kcat/Km) (fibrinogen) of the same substance?
Answer: 1.7e+07 M⁻¹ s⁻¹

Question: And the PC Activation (kcat/Km) (protein C)?
Answer: 103 M⁻¹ s⁻¹

Question: What about the PC Activation + TM (kcat/Km, with exogenous thrombomodulin) (protein C) of the same substance?
Answer: 220000 M⁻¹ s⁻¹

Question: For W215A/E217A thrombin, which PAR-1 (kcat/Km) (PAR-1) is on record?
Answer: 26000 M⁻¹ s⁻¹

Question: What about the Fibrinogen (FpA) (kcat/Km) (fibrinogen) of the same substance?
Answer: 890 M⁻¹ s⁻¹

Question: What about the PC Activation (kcat/Km) (protein C) of the same substance?
Answer: 0.01 M⁻¹ s⁻¹

Question: What about the PC Activation + TM (kcat/Km, with exogenous thrombomodulin) (protein C) of the same substance?
Answer: 12000 M⁻¹ s⁻¹
